PubChem BioAssay AID645 (SRMLSC, 2007)
The entries are a selection whose mix differs from that of the whole data set. Activity calls are given as the source filed them.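 How the source made its calls: active means HER2 level under 5% of the carrier-only control; inconclusive means no clear call, values can overlap the other calls; inactive means the rest.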

Chains of the proteins cited; added tags and fusions are not shown.
UniProt P04626, whole entry: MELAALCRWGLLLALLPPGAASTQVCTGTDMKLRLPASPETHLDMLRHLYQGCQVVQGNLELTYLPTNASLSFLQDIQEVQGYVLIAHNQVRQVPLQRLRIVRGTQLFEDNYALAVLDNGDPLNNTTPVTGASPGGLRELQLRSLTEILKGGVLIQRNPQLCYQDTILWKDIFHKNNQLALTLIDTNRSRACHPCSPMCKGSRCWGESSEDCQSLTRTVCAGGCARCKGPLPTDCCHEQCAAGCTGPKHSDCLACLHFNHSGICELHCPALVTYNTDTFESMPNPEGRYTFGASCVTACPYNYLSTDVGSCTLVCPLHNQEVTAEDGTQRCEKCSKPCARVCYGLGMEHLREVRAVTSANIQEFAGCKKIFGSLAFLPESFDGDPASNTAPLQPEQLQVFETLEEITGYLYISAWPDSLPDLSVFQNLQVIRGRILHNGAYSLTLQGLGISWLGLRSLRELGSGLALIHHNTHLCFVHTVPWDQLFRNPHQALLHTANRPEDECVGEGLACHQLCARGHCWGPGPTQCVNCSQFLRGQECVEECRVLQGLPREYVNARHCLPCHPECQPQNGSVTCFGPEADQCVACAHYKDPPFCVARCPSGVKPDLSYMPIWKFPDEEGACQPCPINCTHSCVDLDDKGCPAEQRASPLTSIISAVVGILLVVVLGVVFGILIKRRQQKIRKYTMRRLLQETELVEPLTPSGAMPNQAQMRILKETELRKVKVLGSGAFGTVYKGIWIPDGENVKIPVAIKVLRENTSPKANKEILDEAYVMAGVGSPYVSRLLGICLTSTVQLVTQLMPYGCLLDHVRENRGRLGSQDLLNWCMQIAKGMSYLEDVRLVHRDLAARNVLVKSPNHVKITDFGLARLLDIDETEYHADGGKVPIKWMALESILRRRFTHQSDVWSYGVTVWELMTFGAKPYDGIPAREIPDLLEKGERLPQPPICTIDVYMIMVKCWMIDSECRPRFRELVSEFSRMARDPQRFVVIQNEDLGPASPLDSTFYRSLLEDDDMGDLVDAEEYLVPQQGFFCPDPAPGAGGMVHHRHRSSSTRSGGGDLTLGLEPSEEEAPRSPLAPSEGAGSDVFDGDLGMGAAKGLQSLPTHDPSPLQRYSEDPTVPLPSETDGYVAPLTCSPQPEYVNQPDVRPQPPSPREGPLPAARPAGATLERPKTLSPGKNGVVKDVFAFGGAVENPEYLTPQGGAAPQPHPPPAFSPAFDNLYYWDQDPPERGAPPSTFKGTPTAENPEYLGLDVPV

target: Receptor tyrosine-protein kinase erbB-2 (Homo sapiens) (UniProt P04626); experiment: inhibitors of Her2 protein expression, primary screen, SKBR-3 cells, AlphaScreen, 66K library (AID 645); conditions: SKBR-3 HER2 protein level, 18-24 h, at 10 µM, hits give low values;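 further: 100% = DMSO carrier and 0% = 500 nM PU-H71 HSP90 inhibitor; lower value means stronger loss of Her2 protein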

Row | SMILES | HER2 level % of control
1 | CCN(CC)CC(O)COC(=O)C(O)(c1ccccc1)C1CCCCC1 (stereo not drawn) | inactive: 106%
2 | CP(=O)(Oc1ccccc1)N1CCOC1=O (stereo not drawn) | inactive: 81.5%
3 | COc1ccccc1OP(C)(=O)Nc1c(C)n(C)n(-c2ccccc2)c1=O (stereo not drawn) | inactive: 141%
4 | CP(=O)(Nc1ccccn1)Oc1ccccc1 (stereo not drawn) | inactive: 90.7%
5 | COc1ccccc1OP(C)(=O)Nc1ccc(C)c(C)c1 (stereo not drawn) | inactive: 79.9%
6 | Cc1nc2ccc3ccccc3c2o1.O=[N+]([O-])c1cc([N+](=O)[O-])c(O)c([N+](=O)[O-])c1 | inactive: 106%
7 | CP(=O)(Nc1ccccc1F)Oc1ccccc1 (stereo not drawn) | inactive: 116%
8 | CCOP(C)(=S)SCC(=O)NC(C)(CC)C(=O)O (stereo not drawn) | inactive: 108%
9 | CP(=O)(Nc1ccc2c(c1)OCCO2)Oc1ccccc1 (stereo not drawn) | inactive: 98.2%
10 | Cc1ccccc1NP(C)(=O)Nc1ccccc1C | inactive: 111%
11 | CN(C)CCOC(=O)C(O)(c1ccccc1)C1CCCCC1 (stereo not drawn) | inactive: 104%
12 | Cc1nc2ccc3ccccc3c2s1.O=[N+]([O-])c1cc([N+](=O)[O-])c(O)c([N+](=O)[O-])c1 | inactive: 120%
13 | Cc1ccc(C)c(NP(C)(=O)Oc2ccccc2)c1 (stereo not drawn) | inactive: 96.3%
14 | Cc1ccc(NP(C)(=O)Oc2ccccc2)c(C)c1 (stereo not drawn) | inactive: 88.9%
15 | COc1ccccc1OP(C)(=O)Nc1ccc(C)cc1 (stereo not drawn) | inactive: 92.7%
16 | CP(=O)(NC(=O)Nc1ccccc1)Oc1ccccc1 (stereo not drawn) | inactive: 299%
17 | CCOP(C)(=S)SCC(=O)NC(C)C(=O)O (stereo not drawn) | inactive: 122%
18 | CP(=S)(Nn1cnnc1)Oc1ccccc1 (stereo not drawn) | inactive: 93.2%
